Measurements reported in US10112937B2, “P2X7 modulators and methods of use” (Janssen Pharmaceutica NV, priority 2013, dated 2018).
pKi: −log10 of the molar value.

By UniProt entry, the sequences of proteins in these tests, tags left out. Where a name states a change or a piece, a line headed by the entry shows the natural chain unless it says otherwise.
UniProt Q99572: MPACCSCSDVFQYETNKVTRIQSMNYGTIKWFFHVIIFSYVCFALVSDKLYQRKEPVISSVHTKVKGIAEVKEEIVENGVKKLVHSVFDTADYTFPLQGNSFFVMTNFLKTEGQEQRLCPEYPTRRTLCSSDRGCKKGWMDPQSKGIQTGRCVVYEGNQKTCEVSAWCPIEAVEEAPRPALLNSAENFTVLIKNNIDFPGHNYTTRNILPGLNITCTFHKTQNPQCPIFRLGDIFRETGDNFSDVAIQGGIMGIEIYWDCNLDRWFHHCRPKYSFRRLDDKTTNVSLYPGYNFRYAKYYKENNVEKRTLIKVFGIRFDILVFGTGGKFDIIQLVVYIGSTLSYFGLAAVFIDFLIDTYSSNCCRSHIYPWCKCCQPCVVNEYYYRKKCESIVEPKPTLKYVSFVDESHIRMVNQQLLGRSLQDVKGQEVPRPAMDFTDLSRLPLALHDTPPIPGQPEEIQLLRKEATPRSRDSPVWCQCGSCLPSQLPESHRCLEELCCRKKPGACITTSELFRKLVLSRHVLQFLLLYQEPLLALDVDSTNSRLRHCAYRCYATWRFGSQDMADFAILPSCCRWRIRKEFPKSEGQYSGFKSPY
UniProt Q64663: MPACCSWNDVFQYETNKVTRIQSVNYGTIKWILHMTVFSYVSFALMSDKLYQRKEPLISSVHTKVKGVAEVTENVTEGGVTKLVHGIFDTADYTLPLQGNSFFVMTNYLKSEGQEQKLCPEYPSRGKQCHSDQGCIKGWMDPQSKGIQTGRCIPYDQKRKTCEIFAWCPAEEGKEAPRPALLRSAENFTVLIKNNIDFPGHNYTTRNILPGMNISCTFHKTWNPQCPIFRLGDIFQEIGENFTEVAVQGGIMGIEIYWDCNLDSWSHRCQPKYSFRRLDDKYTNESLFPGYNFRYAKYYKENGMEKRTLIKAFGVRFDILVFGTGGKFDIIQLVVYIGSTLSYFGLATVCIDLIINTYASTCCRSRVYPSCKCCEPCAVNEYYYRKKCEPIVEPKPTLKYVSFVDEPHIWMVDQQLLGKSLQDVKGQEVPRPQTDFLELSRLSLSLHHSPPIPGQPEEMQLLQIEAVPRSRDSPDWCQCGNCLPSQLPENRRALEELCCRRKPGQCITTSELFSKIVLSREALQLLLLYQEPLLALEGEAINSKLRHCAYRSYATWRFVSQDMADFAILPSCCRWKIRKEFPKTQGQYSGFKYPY

Assays:
human P2X7 = human P2X7 (Homo sapiens (Human), UniProt Q99572); experiment: Radioligand binding ([3H]A-804598), human P2X7-1321N1 cell membranes; conditions: human P2X7-1321N1 membranes, tritiated A-804598
rat P2X7 = rat P2X7 (Rattus norvegicus (Rat), UniProt Q64663); experiment: Radioligand binding ([3H]A-804598), rat P2X7-1321N1 cell membranes; conditions: rat P2X7-1321N1 membranes, tritiated A-804598

With `C[C@H]1c2nnn(-c3ncc(F)cn3)c2CCN1C(=O)c1cccc(C(F)(F)F)c1F` (single isomer, unassigned) [Example 178, (S*)-(2-fluoro-3-(trifluoromethyl)phenyl)(1-(5-fluoropyrimidin-2-yl)-4-methyl-6,7-dihydro-1H-[1,2,3]triazolo[4,5-c]pyridin-5(4H)-yl)methanone] the pKi (human P2X7) was 8.46 and the pKi (rat P2X7) was 7.94.
